Source: patent EP2090576A1, “6-halo-pyrazolo[1,5-a]pyridines, a process for their preparation and their use as metabotropic glutamate receptor (mGluR) modulators” (Merz Pharma GmbH & Co. KGaA, priority 2008, dated 2009)

By UniProt entry, the sequences of proteins in these tests, tags left out. Residues count along the entry.
UniProt P31424, 21-1203: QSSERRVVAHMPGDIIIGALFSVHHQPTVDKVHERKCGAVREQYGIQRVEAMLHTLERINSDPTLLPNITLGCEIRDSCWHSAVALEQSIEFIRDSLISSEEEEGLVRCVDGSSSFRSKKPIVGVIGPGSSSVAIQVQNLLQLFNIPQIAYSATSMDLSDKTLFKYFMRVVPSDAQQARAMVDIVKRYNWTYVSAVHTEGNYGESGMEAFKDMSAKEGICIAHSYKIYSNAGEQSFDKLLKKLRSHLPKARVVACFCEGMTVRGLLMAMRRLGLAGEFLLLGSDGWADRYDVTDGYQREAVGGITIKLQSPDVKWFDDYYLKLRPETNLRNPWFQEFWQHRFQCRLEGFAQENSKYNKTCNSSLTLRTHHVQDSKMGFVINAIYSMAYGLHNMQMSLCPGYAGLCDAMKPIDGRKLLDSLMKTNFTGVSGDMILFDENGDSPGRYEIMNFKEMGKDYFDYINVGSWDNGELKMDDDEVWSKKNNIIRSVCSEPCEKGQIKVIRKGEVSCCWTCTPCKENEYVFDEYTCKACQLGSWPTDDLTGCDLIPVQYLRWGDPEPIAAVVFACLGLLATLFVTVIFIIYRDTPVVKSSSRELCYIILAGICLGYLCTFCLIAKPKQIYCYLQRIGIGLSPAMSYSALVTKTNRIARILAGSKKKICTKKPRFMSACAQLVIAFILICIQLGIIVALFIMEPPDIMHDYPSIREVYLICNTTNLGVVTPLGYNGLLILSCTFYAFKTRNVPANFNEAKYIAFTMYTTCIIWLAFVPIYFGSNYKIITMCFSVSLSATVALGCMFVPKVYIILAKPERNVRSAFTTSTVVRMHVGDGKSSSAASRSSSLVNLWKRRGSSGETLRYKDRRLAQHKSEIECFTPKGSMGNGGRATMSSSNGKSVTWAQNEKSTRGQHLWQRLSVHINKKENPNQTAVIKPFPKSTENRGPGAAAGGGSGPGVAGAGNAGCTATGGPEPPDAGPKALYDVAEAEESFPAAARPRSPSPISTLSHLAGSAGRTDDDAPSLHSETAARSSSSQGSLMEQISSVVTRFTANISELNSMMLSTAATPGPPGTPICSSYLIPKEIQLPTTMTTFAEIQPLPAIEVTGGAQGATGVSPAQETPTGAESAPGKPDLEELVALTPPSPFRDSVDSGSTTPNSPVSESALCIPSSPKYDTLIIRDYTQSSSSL

Target: transmembrane allosteric modulatory sites of mGluR5 receptors (Rattus norvegicus, UniProt P31424)

pKi: 8.09
Compound: Cc1cccc(C#Cc2ccccc2)n1 [MPEP, 2-methyl-6-(phenylethynyl)pyridine]

pKi: −log10 of the molar value.
